From PubChem BioAssay AID602179 (National Center for Advancing Translational Sciences (NCATS), 2012)
The list shows a part of the results, in another mix than the full data. The source made the active and inactive calls. The call rests on the fitted dose curve; in most records, active means well fitted inhibition curve with a large enough effect; inconclusive means small, poorly fitted or top-dose-only effect; inactive means no such curve, though single readings can be large or run the other way.

Chains of the proteins cited; added tags and fusions are not shown.
UniProt O75874, whole entry, looked up, stated change not applied: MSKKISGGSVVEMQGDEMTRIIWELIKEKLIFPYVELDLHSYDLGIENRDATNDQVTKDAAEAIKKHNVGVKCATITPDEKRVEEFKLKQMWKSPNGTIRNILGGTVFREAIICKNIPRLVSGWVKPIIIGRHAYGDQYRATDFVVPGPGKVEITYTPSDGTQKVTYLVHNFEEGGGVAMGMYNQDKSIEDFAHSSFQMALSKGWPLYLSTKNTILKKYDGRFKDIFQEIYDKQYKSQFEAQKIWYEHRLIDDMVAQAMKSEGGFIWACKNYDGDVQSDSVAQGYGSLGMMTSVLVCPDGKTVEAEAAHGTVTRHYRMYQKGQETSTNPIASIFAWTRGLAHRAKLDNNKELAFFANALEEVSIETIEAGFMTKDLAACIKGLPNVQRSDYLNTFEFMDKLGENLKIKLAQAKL

These molecules were tested against Isocitrate dehydrogenase [NADP] cytoplasmic (Homo sapiens) (UniProt O75874) (assay: qHTS for Inhibitors of mutant isocitrate dehydrogenase 1 (IDH1): qHTS). Details: IDH1-R132H enzyme, NADPH consumption, diaphorase/resazurin fluorescence; at 76.6 µM (top of the series).
Source text: Unbiased genomic sequencing for 22 glioma genomes found recurrent mutation of isocitrate dehydrogenase 1 (IDH1) on chromosome 2q33-a gene encoding the cytosolic isoform of IIDH1associated with the tricarboxylic acid cycle (TCA) that catalyzes the oxidative decarboxylation of isocitrate, yielding alpha-ketoglutarate and CO2 via NADP+ to NADPH conversion. Subsequent studies confirmed the recurrent IDH mutations in up to 70% of secondary gliomas and in 10% of AML cases. […] This in effect defines IDH1 as an oncogene, and provides an extraordinary opportunity to discover chemical probes against mutant IDH1 that may translate into much needed new therapies for glioma and AML patients. […] NIH Chemical Genomics Center [NCGC] NIH Molecular Libraries Probe Centers Network [MLPCN] MLPCN Grant: DA032129 Assay Submitter (PI): Lenny Dang, Agios Pharmaceuticals
IDH1-R132H (0.5 ug/mL) was dispensed into black, solid-bottom 1536-well plates at 3 uL/well in 20 mM Tris-HCl (pH 7.5), 150 mM NaCl, 10 mM MgCl2, 4 mM beta-ME, and 0.05% protease-free BSA. Then, 23 nL of compounds or DMSO were delivered to each well using a pin tool. A pre-read was run on the Viewlux to identify fluorescent compounds (540 nm excitation filter, 598 nm emission filter, bodipy mirror and 2 second exposure). After 30 minutes of incubation with compound, 3 uL of substrate mix were dispensed (0.016 mM NADPH, 2 mM alpha-KG, 20 mM Tris-HCl (pH 7.5), 150 mM NaCl, 10 mM MgCl2, and 0.05% protease-free BSA). Plates were spun for 1 min at 1000xg and incubated at room temperature for 80 min. Then 1.5 uL of each detection reagent component for the coupling system were added (0.12 mg/mL diaphorase and 0.072 mM resazurin, each in 20 mM Tris-HCl (pH 7.5), 150 mM NaCl, 10 mM MgCl2, and 0.05% protease-free BSA ) The protein, substrate and two detection components were maintained at 4 °C throughout the screen. Additionally, the substrate and resazurin reagents were protected from light. The plates were measured on an Envision plate reader for fluorescence signal using a 540 nm excitation filter and 590 nm emission filter with 10 flashes. 1x and 0x (no-enzyme) IDH1-R132H enzyme control were used to normalize %Activity of identified inhibitors; 0x enzyme values corresponded to 100% Activity (full inhibition), while 1x IDH1-R132H enzyme values were used to normalize 0%Activity (no inhibition). Concentration-response curves were fitted to the signals arising from the resulting fluorescence. The concentration-effect curves were then classified based on curve quality (r2), response magnitude and degree of measured activity, and compounds were subsequently categorized based on their curve class. […] Keywords: isocitrate dehydrogenase, IDH1, IDH1-R132H, MLSMR, MLPCN, NIH Roadmap, qHTS, NCGC
Further: nearly all actives have a fitted effect of over 65% in size.
On the % scale 0 is the no-effect control and ±100 the full control effect.

SMILES | activity change, negative = inhibition
CCOC(=O)c1ccc(NC(=O)C(C)(CCl)SC)cc1 (stereo unspecified) | inactive: 0.0232%
CSc1ccc(Nc2c([N+](=O)[O-])cc([N+](=O)[O-])cc2[N+](=O)[O-])cc1 | inactive: -2.83%
O=C(OC1CN2CCC1CC2)c1cccc([N+](=O)[O-])c1 (stereo unspecified) | inactive: 12.7%
CCC(C)N(CC(C)C)C(=S)SC(NC(C)=O)C(Cl)(Cl)Cl (stereo unspecified) | inactive: 2.69%
COP1(=S)c2c(C)nn(CCC#N)c2N=C(c2ccc(F)cc2)N1C (stereo unspecified) | inactive: 3.52%
O=C(Nc1ccncc1[N+](=O)[O-])c1ccc([N+](=O)[O-])cc1[N+](=O)[O-] | inactive: -3.18%
O=C(COc1ccccc1)OC1CN2CCC1CC2 (stereo unspecified) | inactive: -4.53%
O=C(O)C(=O)c1ccc(N(CCCl)CCCl)cc1 | inactive: 0.509%
CCOC(=O)Nc1cccc([As](=O)(O)O)c1 | inactive: -2.48%
O=[N+]([O-])c1ccc(Nc2ccc(Oc3ccc([N+](=O)[O-])cc3[N+](=O)[O-])cc2)c([N+](=O)[O-])c1 | inactive: -6.85%
O=P(Nc1ccccn1)(c1cccc2ccccc12)c1cccc2ccccc12 | inactive: -2.81%
Cc1cc(SC(NC=O)C(Cl)(Cl)Cl)ncn1 (stereo unspecified) | inactive: 12.4%
CC1CCNP(=O)(N(CCCl)CCCl)O1 (stereo unspecified) | inactive: 7.51%
CCOC(=O)Nc1ccc([As](=O)(O)O)c(O)c1 | inactive: -5.11%
O=C(O)C(O)c1ccc(N(CCCl)CCCl)cc1 (stereo unspecified) | inactive: 3.77%
Cc1cc(SC(NC(=O)c2ccccc2)C(Cl)(Cl)Cl)nc(C(C)C)n1 (stereo unspecified) | inactive: 4.86%
CCCCOc1ccc(C(=O)NCC2(N3CCCCC3)CCCCC2)cc1OC | inactive: -6.12%
COP(=O)(OC)N1CC1c1ccccc1 (stereo unspecified) | inactive: -4.2%
CC(C)c1ccc(OP(=O)(Nc2ccccn2)Oc2ccccc2F)cc1 (stereo unspecified) | inactive: 6.37%
COC(=O)C1(C)COP(=O)(N2CCCCCC2)OC1 (stereo unspecified) | inactive: 0.862%
ClCCSc1nnc(-c2cccnc2)o1 | inactive: 0.733%
O=[N+]([O-])c1cc([N+](=O)[O-])c(-c2ccn[nH]2)s1 | inactive: 4.6%
CCN(CC)C(=S)SC(NC=O)C(Cl)(Cl)Cl (stereo unspecified) | inactive: 2.73%
O=C(OC1CN2CCC1CC2)c1cccc2[nH]cnc12 (stereo unspecified) | inactive: 2.47%
CC(C)NC(=O)NP(=O)(Oc1ccccc1)Oc1ccccc1 | inactive: -4.58%
COc1cc(C(=O)NCC2(N3CCOCC3)CCCCC2)ccc1OCC(C)C | inactive: 0.972%

SMILES | activity change, negative = inhibition
O=[N+]([O-])c1ccc(-c2cc([N+](=O)[O-])c(O)c([N+](=O)[O-])c2)cc1 | inactive: 9.26%
O=[As](O)(c1ccc(O)cc1)c1ccccc1O | inactive: 10.4%
C[As](=O)(O)c1cccc(C(=O)O)c1 | inactive: 12.9%
Cc1ccc2nc3c(c(C)c2c1)CC(C(Cl)Cl)S3 (stereo unspecified) | inactive: 13.3%
Cc1ccc(OP(=O)(Nc2ccc([N+](=O)[O-])cn2)Oc2ccc(C)cc2)cc1 | inactive: -4.34%
COc1ccc(N/C(=N/P(=O)(N2CCOCC2)N2CCOCC2)N2CCOCC2)cc1 | inactive: 8.24%
O=[N+]([O-])c1cc(Oc2ccc([N+](=O)[O-])cc2C(F)(F)F)cc([N+](=O)[O-])c1 | inactive: 0.813%
Cc1cc(=O)[nH]c(N[N+](=O)[O-])n1 | inactive: -1.46%
O=C(OC1CN2CCC1CC2)C12CC3CC(CC(C3)C1)C2 (stereo unspecified) | inactive: 11.7%
Cc1c2c(nc3ccccc13)SC(C(Cl)Cl)C2 (stereo unspecified) | inactive: -0.337%
COc1cc(I)ccc1[As](=O)(O)O | inactive: -3.99%
COc1ccc2nc(NP(=O)(c3ccccc3)c3ccccc3)sc2c1 | inactive: -6.54%
O=P1(N(CCCl)CCCl)OCCCN1CCCl (stereo unspecified) | inactive: 9.67%
O=P1(N(CCCl)CCCl)Nc2ccccc2N1 | inactive: -1.08%
CCCOP(=S)(Nc1nc(N)cc(=O)[nH]1)OCCC | inactive: -3.14%
Cc1ccc(NCCc2c([N+](=O)[O-])cc([N+](=O)[O-])cc2[N+](=O)[O-])cc1 | inactive: 6.35%
Nc1cccc2c([As](=O)(O)O)cccc12 | inactive: -5.45%
CCOP(=O)(Nc1cccc2ccccc12)OCC | inactive: 0%
COc1cc(C2NCCC3(OCCO3)C2(C)C)cc(OC)c1OC (stereo unspecified) | inactive: 2.16%
CS(=O)(=O)c1ccc(Cl)c(NC(=O)COC(=O)C(O)(c2ccccc2)c2ccccc2)c1 | inactive: -12.1%
COc1cc(C(=O)NCC2(N3CCOCC3)CCCCC2)cc(Cl)c1OC(C)C | inactive: 20%
O=[As](O)(O)c1cccnc1 | inactive: -4.37%
O=C(OC1CN2CCC1CC2)c1ccc(Cl)cc1 (stereo unspecified) | inactive: -11.6%
O=[As](O)(c1cccc(O)c1)c1cccc(O)c1 | inactive: -9.91%
Cc1cccc(OCC(=O)OC2CN3CCC2CC3)c1 (stereo unspecified) | inactive: -1.24%
NC(=O)Nc1ccc([As](=O)(O)O)cc1 | inactive: -13.7%

SMILES | activity change, negative = inhibition
CN(C(=O)Cc1ccc(Cl)c(Cl)c1)[C@H]1CC[C@@]2(CCCO2)C[C@@H]1N1CCCC1 | inactive: -1.31%
CN(C)C(=O)c1cc([N+](=O)[O-])cc2c1-c1c(cc([N+](=O)[O-])cc1[N+](=O)[O-])C2=O | inactive: 20.7%
O=[N+]([O-])c1ccc2c(c1)nnn2O | inactive: 4.55%
CN(C(=O)Cc1ccccc1)[C@@H]1CC[C@]2(CCCO2)C[C@H]1N1CCCC1 | inactive: 1.2%
CCOP1(=S)c2c(C)nn(CCC#N)c2N=C(c2ccc(F)cc2)N1C (stereo unspecified) | inactive: 1.93%
N#CCCN(C(=O)COC(=O)C(O)(c1ccccc1)c1ccccc1)c1ccc(F)cc1 | inactive: 5.5%
CS(=O)(=O)c1cc([N+](=O)[O-])c2no[n+]([O-])c2c1 | inactive: 6.07%
O=P(Nc1nccs1)(c1ccccc1)c1nc2ccccc2s1 (stereo unspecified) | inactive: 2.69%
O=P(Nc1nccs1)(Oc1ccccc1)Oc1ccccc1 | inactive: -2.13%
CCOP1(=S)c2c(C)nn(CCC#N)c2N=C(c2ccccc2F)N1C (stereo unspecified) | inactive: 7.34%
Nc1ccccc1[As](=O)(O)c1ccccc1 | inactive: 9.86%
O=C(O)COc1ccc([As](=O)(O)O)cc1[N+](=O)[O-] | inactive: 10.7%
O=P1(Nc2ncccn2)COc2ccccc2OC1 | inactive: 1.86%
O=P1(Nc2ccc(Br)cn2)COc2ccccc2OC1 | inactive: -3.08%
NS(=O)(=O)c1cccc(NC(=O)COC(=O)C(O)(c2ccccc2)c2ccccc2)c1 | inactive: 5.9%
Cc1ccc(OCC(=O)OC2CN3CCC2CC3)cc1 (stereo unspecified) | inactive: 11.6%
O=[As](O)(c1cccs1)c1cccs1 | inactive: -0.805%
Nc1cccc([As](=O)(O)c2ccccc2)c1 | inactive: -7.63%
CC1CCC(C(C)C)C(OP(=O)(Nc2ccccn2)c2ccccc2)C1 (stereo unspecified) | inactive: -3.14%
Cc1ccc(C(=O)OC2CN3CCC2CC3)cc1 (stereo unspecified) | inactive: 0%
Cc1nn(-c2ccccc2)c2c1P(=O)(N1CCOCC1)N(C)C(c1ccccc1)=N2 (stereo unspecified) | inactive: 5.18%
CCCC1OP(=O)(Nc2ccccc2)OCC1CC (stereo unspecified) | inactive: 5.23%
O=C(/C=C/c1ccccc1)OC1CN2CCC1CC2 (stereo unspecified) | inactive: 8.79%
CN(C)C1(CNC(=O)c2ccc(S(C)(=O)=O)cc2)CCCCC1 | inactive: -0.241%
COc1ccccc1CNC(=O)COC(=O)C(O)(c1ccccc1)c1ccccc1 | inactive: 7.67%
CC1(CBr)Cn2c(nc3ccccc3c2=O)S1 (stereo unspecified) | inactive: 4.83%

SMILES | activity change, negative = inhibition
CC(C)/C=N\N=C(\N)N[N+](=O)[O-] | inactive: 7.3%
CN(C(=O)Cc1ccc(Cl)c(Cl)c1)[C@@H]1CCCC[C@H]1N1CCCC1 | inactive: 6.28%
CN(CCCl)Cc1cc(Cl)c(NC2=NCCN2)c(Cl)c1 | inactive: 12.9%
CCOP(=O)(Nc1ccc(C)cn1)OCC | inactive: 6.73%
CCOP(=O)(NC(=NC(C)c1ccccc1)NC(C)c1ccccc1)OCC (stereo unspecified) | inactive: -5.82%
O=P1(Nc2ccccn2)COc2ccccc2OC1 | inactive: 4.74%
CCC1=CC2Cc3nc4ccc(Cl)cc4c(N)c3C(C1)C2 (stereo unspecified) | inactive: 1.77%
CC(C)(C)C(=O)NC(Sc1ncccn1)C(Cl)(Cl)Cl (stereo unspecified) | inactive: 3.65%
O=P1(N(CCCl)CCCl)NCCC(C(F)(F)F)O1 (stereo unspecified) | inactive: -1.62%
Clc1n[nH]nc1-c1nn[nH][15n]1 | inactive: 0%
CC(C)C(=O)NC(Sc1ccccc1)C(Cl)(Cl)Cl (stereo unspecified) | inactive: 5.18%
O=P(Nc1nccs1)(c1ccccc1)c1ccccc1 | inactive: -2.85%
c1nnnn1CCn1cnnn1 | inactive: -2.18%
O=[N+]([O-])c1ccc(O)c(/C=N/Nc2ccc([N+](=O)[O-])cc2[N+](=O)[O-])c1 | inactive: 2.05%
CC(=O)NC(SC(=S)N(C)C)C(Cl)(Cl)Cl (stereo unspecified) | inactive: -0.313%
O=[N+]([O-])c1ncn(CCn2cnc([N+](=O)[O-])n2)n1 | inactive: 2.06%
O=[As](O)(c1ccccc1)c1ccc(O)cc1 | inactive: 2.91%
Nc1ccc([As](=O)(O)c2ccc([N+](=O)[O-])cc2)cc1 | inactive: 5.08%
C(Cc1nn[nH]n1)Cc1nn[nH]n1 | inactive: -4.39%
O=C(OC1CN2CCC1CC2)c1cccc(Cl)c1 (stereo unspecified) | inactive: 0%
COc1ccc(N)c([N+](=O)[O-])c1[N+](=O)[O-] | inactive: 12.8%
O=P(Nc1ccccn1)(c1ccc(Br)cc1)c1ccc(Br)cc1 | inactive: 0%
CN(C)C1(CNC(=O)c2ccc(Cl)c(S(N)(=O)=O)c2)CCCCC1 | inactive: 3.92%
